Data taken from article PMC3735166, “Comparative Studies on Acetylcholinesterase Characteristics between the Aphids, Sitobion avenae and Rhopalosiphum padi” (Journal of Insect Science, 2013).

What was measured:
[1] = target: T1, purified AChE from S. avenae (Sitobion avenae, UniProt Q66S75); experiment: Inhibition of purified AChE from S. avenae (Ellman method, 5 min preincubation); type: biochemical; details: ratio of I50 S. avenae / R. padi
T1 sequence (Q66S75 23-664): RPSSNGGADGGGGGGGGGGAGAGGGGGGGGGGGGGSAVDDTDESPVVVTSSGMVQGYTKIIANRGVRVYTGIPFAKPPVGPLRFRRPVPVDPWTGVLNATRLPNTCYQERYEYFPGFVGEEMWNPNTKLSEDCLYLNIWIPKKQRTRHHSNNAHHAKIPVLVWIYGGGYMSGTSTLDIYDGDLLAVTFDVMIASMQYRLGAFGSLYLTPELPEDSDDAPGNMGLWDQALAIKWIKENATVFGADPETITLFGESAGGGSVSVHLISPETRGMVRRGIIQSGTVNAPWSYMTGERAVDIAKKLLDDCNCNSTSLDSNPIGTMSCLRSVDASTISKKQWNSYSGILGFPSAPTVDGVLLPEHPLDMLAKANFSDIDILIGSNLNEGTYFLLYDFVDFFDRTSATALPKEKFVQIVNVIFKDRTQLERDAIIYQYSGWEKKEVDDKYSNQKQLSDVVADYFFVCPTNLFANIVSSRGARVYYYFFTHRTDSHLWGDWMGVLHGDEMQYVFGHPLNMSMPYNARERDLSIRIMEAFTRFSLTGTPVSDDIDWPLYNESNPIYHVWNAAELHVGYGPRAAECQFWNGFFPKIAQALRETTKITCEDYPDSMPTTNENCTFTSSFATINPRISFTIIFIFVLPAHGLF
Procedure: Purification of AChE from both aphid species was performed by affinity chromatography using procainamide as the affinity ligand. The procedure used in this study was according to the method of Gao and Zhu ([2001]) with some modifications, as follows:
(§1) Step 1: Preparation of crude extract. About 1.0 g apterous adults were homogenized in 10 mL ice-cold 0.1 M phosphate buffer (pH 7.5), containing 0.2 M NaCl and 0.5 % (v/v) Triton X-100 and three protease inhibitors (1 mM EDTA-Na2, 1 µM leupeptin, and 10 µM PMSF). The homogenate was filtered through cheesecloth and then centrifuged at 41,000 g, 4°C for 1 h. The supernatant, after being filtered through glass wool, was used as crude extract.
Step 2: Chromatography on sephadex G-25. […] The fractions (5 ml each) were collected at the flow rate of 45 mL/h at 4°C. All the fractions containing the AChE activity were collected as the enzyme resource for the next step.
Step 3: Procainamide affinity chromatography and removal of procainamide and condensation. The procainamide-based AChE affinity column was made according to the instructions from the manufacturer. […] The collected AChE dialyzed against 0.05 M, pH 7.5 phosphate buffer three times for 3 h. The enzyme was stored at 4°C and used as the enzyme source.
(§2) AChE activities were determined according to the method of Ellman et al. ([1961]) modified by Gao ([1987]), using ATCh, PrTCh, MeTCh and BuTCh as substrates. The AChE activities were determined at 6 substrate concentrations from 0.15625 to 5 mM based on the reaction at 30°C for 15 min and the reaction was stopped by the addition of 900 µL, DTNB (0.125 mM) with 40% ethanol, then the optical density (OD) was measured at 412 nm by spectrophotometer (Lambda Bio 40).
(§3) The value of median inhibition concentration (I50) for the inhibitors were calculated based on log (inhibitor concentration) vs. probit (percentage of inhibition) linear regression.

[2] = target: T2, crude extract AChE from S. avenae (Sitobion avenae, UniProt Q66S75); experiment: Inhibition of crude extract AChE from S. avenae (Ellman method, 5 min preincubation); type: biochemical; details: ratio of I50 S. avenae / R. padi
T2 sequence (Q66S75 23-664): T1 sequence (Q66S75 23-664)
Procedure: as §1, §2, §3

SMILES | fold less sensitive to inhibition (I50 fold higher), S. avenae versus R. padi [1] [fold] | fold less sensitive to inhibition, S. avenae versus R. padi [2] [fold]
CNC(=O)ON=C(C)SC [Methomyl] | 1.3 | 4.3
CS/C(C)=N\OC(=O)N(C)SN(C)C(=O)O/N=C(\C)SC [Thiodicarb] | 1.7 | 8.1
Cc1nc(N(C)C)nc(OC(=O)N(C)C)c1C [Pirimicarb] | 1.6 | 5.4
